Measured values from patent US20240217973A1, “IMIDAZOPYRIDINE COMPOUNDS AND USE THEREOF” (MEDSHINE DISCOVERY INC., priority 2021, published 2024).

The chains behind the UniProt entries cited, without tags or fusion partners.
UniProt Q06187, whole entry: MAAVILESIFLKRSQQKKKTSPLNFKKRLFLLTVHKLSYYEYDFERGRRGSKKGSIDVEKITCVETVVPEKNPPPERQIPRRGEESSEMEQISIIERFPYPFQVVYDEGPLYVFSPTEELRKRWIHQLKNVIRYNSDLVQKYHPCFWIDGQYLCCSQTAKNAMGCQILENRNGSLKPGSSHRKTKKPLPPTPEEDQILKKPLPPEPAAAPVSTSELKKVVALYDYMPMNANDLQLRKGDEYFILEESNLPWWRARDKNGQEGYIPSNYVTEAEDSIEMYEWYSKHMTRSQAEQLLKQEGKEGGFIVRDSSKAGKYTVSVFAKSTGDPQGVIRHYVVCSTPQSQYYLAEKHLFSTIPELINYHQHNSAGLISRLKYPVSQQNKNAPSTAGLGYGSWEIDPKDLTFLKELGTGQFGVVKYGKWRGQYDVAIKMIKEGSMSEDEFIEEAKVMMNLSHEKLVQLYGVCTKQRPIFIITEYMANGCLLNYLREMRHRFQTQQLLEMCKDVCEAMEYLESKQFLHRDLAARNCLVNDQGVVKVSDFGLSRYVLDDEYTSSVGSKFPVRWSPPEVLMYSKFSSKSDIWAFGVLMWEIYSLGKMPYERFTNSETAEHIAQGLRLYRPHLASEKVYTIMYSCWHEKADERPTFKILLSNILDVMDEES

Columns and labels:
[1] = Pharmacokinetic evaluation of compounds in dogs; details: beagle dogs
Procedure: Experimental purpose: To test the in vivo pharmacokinetic data of compounds in beagle dogs.
(§1) The compound was mixed with the solvent 5% DMSO/5% Solutol/90% H2O, vortexed and sonicated to prepare a 0.5 mg/mL clear solution. The beagle dogs were administered the candidate compound solution intravenously. Whole blood was collected for a certain period of time, and plasma was prepared. The drug concentration was analyzed by LC-MS/MS method, and pharmacokinetic parameters were calculated.
as §1, with “administered” for “administered the”, “solutions orally.” for “solution intravenously.”, “LC- MS/MS” for “LC-MS/MS”

[2] = Hepatocyte metabolic stability experiment (HMS), C; details: C hepatocytes, 1 μM
Procedure: Experimental operations: 198 μL of hepatocyte suspension (0.51×10^6 cells/mL) was added to the preheated incubation plate, and 198 μL of culture medium without hepatocytes was added to T0-MC and T120-MC incubation plates for the culture medium control group, and all incubation plates were pre-incubated for 10 minutes in a 37° C. incubator. Then 2 μL of the working solution of the test and control compounds were added and mixed well, and the incubation plate was immediately put into the plate shaker in the incubator, the rotation speed was adjusted to about 650 rpm, and the timer and the reaction were started. 2 duplicate samples for each compound were prepared at each time point. Incubation conditions: 37° C., saturated humidity, and containing 5% CO2. In the test system, the final concentration of the test compound was 1 μM, the final concentration of the control compound was 3 μM, the final concentration of hepatocytes was 0.5×10^6 cells/mL, and the final concentration of the total organic solvent was 0.96%, of which the final concentration of DMSO was 0.1%. […] All samples were mixed and analyzed by LC-MS/MS method. […]

BTK kinase = BTK kinase (Homo sapiens (Human), UniProt Q06187); assay: BTK kinase experiment (ADP-Glo); details: read-out: BTK IC50; 2 μM ATP, PolyE4Y1 substrate, 30 minutes pre-incubation
Procedure: BTK kinase, PolyE4Y1 substrate and Kinase assay buffer III were purchased from Signalchem; ADP-Glo Kinase Assay was purchased from Promega; Nivo multi-label analyzer (PerkinElmer).
1× buffer preparation (which was prepared and used immediately): Kinase assay buffer III was diluted with ddH2O to 1× assay buffer for later use.
The compound to be tested was diluted with 100% DMSO to 10 μM as the first concentration, and followed by a 5-fold dilution to the 8th concentration using a multi-channel pipette, i.e., it was diluted from 10 μM to 0.128 nM.
Each gradient of the compound to be tested was diluted into a working solution with 5% DMSO using 1× buffer, 1 μL/well was added to the corresponding well, and a double-replicate well experiment was set up. 2 μL of BTK enzyme (4 ng) was add to each well and incubating at 25° C. for 30 minutes. After the incubation was completed, 2 μL of a mixture of substrate and ATP (2 μM ATP, 0.2 μg/μL PolyE4Y1) was added to each well and incubating at 25° C. for 120 minutes. At this point, the final concentration gradient of the compound was diluted from 100 nM to 0.00128 nM. […] After reacting at 25° C. for 30 minutes, PerkinElmer Nivo multi-label analyzer was used to read the chemiluminescence, and the integration time was 0.5 seconds. […]

[3] = IV, 0.49 mg/kg (002), 0.5 mg/kg (003B)

## Nc1nccc2c1n(-c1ccc(Oc3ccccc3)cc1)c(=O)n2C1CCN(C(=O)/C=C/CF)C1 (single isomer, unassigned) [Compound 003B]
[1]; [3]
  AUC0-inf: 0.557 µM·h
  C0: 451 nM
  Cl: 31.9 mL/min/kg
  T1/2: 1.14 h
  Vd: 2.49 L/kg
[1]; PO, 2.0 mg/kg
  AUC0-inf: 2.247 µM·h
  Cmax: 724 nM
  F %: 101%
  T1/2: 1.0 h
  Tmax: 0.63 h
[2]
  HMS CLint(liver): 73 mL/min/kg
BTK kinase
  pIC50: 8.72

pIC50: −log10 of the molar value.
